# Values of other authors in patent US5726184A, “Tetralin compounds with improved MDR activity” (Vertex Pharmaceuticals Incorporated, priority 1995, dated 1998).
# Settings: in patients, concentrations needed for sensitization; Hait et al.; Twentyman et al.; cited from earlier work
substance,measurement,value
11-methyl-leucine cyclosporin [11-met-leu CsA],immunosuppressive effect,do not exert an immunosuppressive effect
